The record followed here is US10544117B2, “5-hydroxytryptamine receptor 7 activity modulators and their method of use” (Temple University—Of the Commonwealth System of Higher …, priority 2014, dated 2020).

The term IC50 denotes the midpoint of a concentration-inhibition curve.

In this assay the target is Serotonin 5HT7 receptors (Homo sapiens (Human), UniProt P34969). Briefly: Radiolabel Binding Studies for Serotonin 5HT7 receptors. The following applies: membranes of cells expressing recombinant 5HT7 receptors. Here is the method: Radiolabel Binding Studies for Serotonin 5HT7 receptors, method 1:
A similar stock of the reference compound chlorpromazine is also prepared as a positive control. Eleven dilutions (5× assay concentration) of the compound of the disclosure and chlorpromazine are prepared in the Assay Buffer by serial dilution to yield final corresponding assay concentrations ranging from 10 pM to 10 μM.
A stock concentration of 5 nM [^3H]LSD (lysergic acid diethyl amide) is prepared in 50 mM Tris-HCl, 10 mM MgCl2, 1 mM EDTA, pH 7.4 (Assay Buffer). Aliquots (50 μl) of radioligand are dispensed into the wells of a 96-well plate containing 100 μl of Assay Buffer. Duplicate 50-μl aliquots of the compound of the disclosure test and chlorpromazine positive control reference compound serial dilutions are added.
Membrane fractions of cells expressing recombinant 5HT7 receptors (50 μL) are dispensed into each well. […]
The 250-μl reactions are incubated at room temperature for 1.5 hours, then harvested by rapid filtration onto 0.3% polyethyleneimine-treated, 96-well filter mats using a 96-well Filtermate harvester. […] The filter mats are dried, then scintillant is added to the filters and the radioactivity retained on the filters is counted in a Microbeta scintillation counter. […]

As for `O=C1OC(CCN2CCN(c3ccc4[nH]ccc4c3)CC2)CC12CCCC2` (stereo not shown) [Entry 160147], the IC50 worked out at 56 nM.
